IC50 data for one compound are collected here from the supplement of paper PMC11403291.

The chains behind the UniProt entries cited, without tags or fusion partners. Where a name states a change or a piece, a line headed by the entry shows the natural chain unless it says otherwise.
UniProt O00764: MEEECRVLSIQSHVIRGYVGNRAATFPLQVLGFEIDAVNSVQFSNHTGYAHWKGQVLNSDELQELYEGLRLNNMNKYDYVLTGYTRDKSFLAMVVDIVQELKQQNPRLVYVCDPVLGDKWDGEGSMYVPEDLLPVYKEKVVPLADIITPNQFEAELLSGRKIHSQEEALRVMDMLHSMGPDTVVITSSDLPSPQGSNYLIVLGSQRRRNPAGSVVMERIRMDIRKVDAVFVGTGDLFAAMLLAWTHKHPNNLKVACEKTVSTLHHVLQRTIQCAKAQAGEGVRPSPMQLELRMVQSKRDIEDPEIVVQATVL

The target of this experiment is PDXK (UniProt O00764). The experiment in a line: IC50 of competition for binding to PARP-centric bead matrix. The conditions noted are these: affinity matrix: PARP family-centric bead mix; lysate: MDA-MB-231.

`NC(=O)c1cccc2cn(-c3ccc([C@@H]4CCCNC4)cc3)nc12` [Niraparib]: the half-inhibitory concentration (IC50) (in general, the concentration at which inhibition is half-maximal) worked out at 11 µM.
